# Data as given in patent US5362364A, “Process for producing alkaline paper” (Mitsubishi Paper Mills Limited, priority 1990, dated 1994).
# How the values were obtained:
# [1] = test system: Salmonella typyhimurium TA 100; assay: mutagenicity test (reverse mutation test) on hand sheet extract, Ministry of Labor Order No. 261; format: cell-based; conditions: compared with Sample 3-1 and 4-1 (DMTT) or Sample 7-1 and 8-1 (bromonitroalcohol)
# Description: The mutagenicity test was carried out according to Ministry of Labor, Labor Standards Office, Order No. 261 (May 18, 1985). That is, each hand sheet was subjected to extraction using a mixture of benzene/ethanol (9/1, by volume) at 80° C. for three hours, and the resulting extractant was subjected to a reverse mutation test using Salmonella typyhimurium TA 100 without following a metabolism activating method.
# When the number of reverse mutation colony increased to twice or more that in the case of dimethyl sulfoxide used as a control solvent, it was determined "positive".
# (§1) Measurement of the sizing degree, evaluation of the mutagenicity, and ninhydrin reaction in Table 3 and Table 4 were conducted in the same manner as in Table 1 and Table 2.
# [2] = test system: slime; assay: ninhydrin reaction of the paper stock filtrate (slime formation); conditions: slime inhibition with slimecide added in advance to cationic starch; based on paper stock solid matter
# Description: (§2) A part of the paper stock as obtained above was stored at 32° C. for 7 days and then, filtered by means of a wire screen. The filtrate was subjected to ninhydrin reaction and the effectiveness of the slimecide controlling agent was evaluated based on the result of the ninhydrin reaction. The filtrate was called "Sample 1-2".
# Ninhydrin reaction was effected by adding 0.5 ml of a 1% aqueous solution of nonhydrin to 10 ml of the filtrate, and the result was evaluated depending on the degree of color change of the resulting solution to reddish purple.
# as §2, with “net.” for “screen.”, “slime” for “slimecide”, “5-2".” for “1-2".”
# as §1
smiles,measurement,setting,value
"CN1CSC(=S)N(C)C1 [DMTT, 3,5-dimethyltetrahydro-1,3,5-2H-thiadiazine-2-thione]",safety for man,[1],very safe for man
same,amount of slimecide relative to amount added in conventional manner,[2],about 1/5
